Data as given in patent publication US10976307B2, “Whole cell assays and methods” (Celcuity Inc., priority 2012, dated 2021).

Tests used:
Format in all cases: cell-based, human
[1] = test system: Patient C1 colon cancer cells; test: CELx Combination test, impedance biosensor CReMS; conditions: single drug
Method: (§1) A CELx Combination test was performed using cells from two colon cancer patients (Patients C1 and C2), EGF, and a combination of two drugs indicated for colon cancer, Cetuximab and Irinotecan. The physiologic change of the C1 and C2 cells during the test was measured with an impedance biosensor CReMS and the output from the CReMS is recorded in FIGS. 3A and 3B. The comparison of the CELx test result and the third party clinical reference is recorded in FIG. 3C. […] The test also illustrates how the CELx test operates with colon cancer cells, in addition to breast cancer cells.
(§2) The CReMS, microplate, reagents, and buffers used in Examples 1 and 2 are the same as those employed in Example 3, except for the therapeutic agent used. In Example 3, two therapeutic agents, cetuximab and irinotecan, were tested. Irinotecan was purchased from Selleck Chemicals (TX, USA) and cetuximab was obtained from a clinical dispensary.
(§3) Between 6,000-12,000 cells in each well were seeded into the impedance microplate containing 120 uL settling media with serum. The solution was replaced with media containing no serum to synchronize the cells with respect to physiologic state. Twenty microliters each of irinotecan and cetuximab was added to one set each of the C1 and C2 cells; another control set of C1 and C2 cells received no drugs. […]

[2] = test system: Patient C2 colon cancer cells; test: CELx Combination test, impedance biosensor CReMS; conditions: Patient C2 cells (printed Patient 2), single drug
Method: as §1, §2, §3

[3] = test system: Patient B1 HER2 overexpressing breast cancer cells; test: CELx Pathway Shutdown test, impedance biosensor CReMS, EGF stimulation; conditions: drug added two hours before EGF pathway stimulation, compared to stimulation with no drug
Method: A CELx Pathway Shutdown test was performed using cells from two HER2 overexpressing breast cancer patients (Patient B1 and B4), two drugs (Lapatinib and Trastuzumab) that are indicated for HER2 positive breast cancers, and human epidermal growth factor (EGF). The physiologic change of the B1 and B4 cells during the test was measured with an impedance biosensor CReMS and the output from the CReMS is recorded in FIGS. 1A and 1B. The comparison of the CELx test results and the third party clinical reference is recorded in FIG. 1C. This example illustrates how the CELx test is able to predict the responsiveness that a patient will have to different targeted pathway drugs by using a CReMS to measure the physiological change in a patient's cells continuously over a period of several hours. This example also illustrates how the presence of a genetic biomarker, in this case an overexpressing HER2 gene, is not a sufficient condition to predict efficacy of the drug. […]
Cells from Patient B1 and B4 were utilized. […] Prior to addition to the impedance microplate, the cells were removed from their growth container with versene, counted, and re-suspended in media without serum or other growth factors. […]

Substance	physiologic change in patient's cells by the individual drug [1]	responsiveness to each individual drug [2]	change (decrease) of cell index of the test cells after drug added [3]
Cetuximab	did not cause a physiologic change	responsive	–
Trastuzumab	–	–	less than 5%
